Measured values as given in PMC10164576, “Interaction with the carboxy-terminal tip of SSB is critical for RecG function in E. coli” (Nucleic Acids Research, 2023).

Tests used:
[1] = target: T1, RecG DNA helicase, wildtype (E. coli, UniProt P24230 1-693); assay: ITC; SSB proteins or unlabeled peptides injected into RecG in the cell; 20 mM Tris-HCl pH 8.0, 150 mM NaCl, 10% glycerol, 1 mM EDTA, 1 mM β-mercaptoethanol; 25°C; one-site model; concentrations as monomers; conditions: both partners purified
T1 construct: RecG DNA helicase, E. coli, expressed from overexpression plasmid pEAW111; No tag is mentioned; also called WT RecG; source: E. coli STL2669/pT7pol26 with pEAW111, purified (ammonium sulfate, DEAE, Source 15Q, Source 15S)
T1 sequence (looked up): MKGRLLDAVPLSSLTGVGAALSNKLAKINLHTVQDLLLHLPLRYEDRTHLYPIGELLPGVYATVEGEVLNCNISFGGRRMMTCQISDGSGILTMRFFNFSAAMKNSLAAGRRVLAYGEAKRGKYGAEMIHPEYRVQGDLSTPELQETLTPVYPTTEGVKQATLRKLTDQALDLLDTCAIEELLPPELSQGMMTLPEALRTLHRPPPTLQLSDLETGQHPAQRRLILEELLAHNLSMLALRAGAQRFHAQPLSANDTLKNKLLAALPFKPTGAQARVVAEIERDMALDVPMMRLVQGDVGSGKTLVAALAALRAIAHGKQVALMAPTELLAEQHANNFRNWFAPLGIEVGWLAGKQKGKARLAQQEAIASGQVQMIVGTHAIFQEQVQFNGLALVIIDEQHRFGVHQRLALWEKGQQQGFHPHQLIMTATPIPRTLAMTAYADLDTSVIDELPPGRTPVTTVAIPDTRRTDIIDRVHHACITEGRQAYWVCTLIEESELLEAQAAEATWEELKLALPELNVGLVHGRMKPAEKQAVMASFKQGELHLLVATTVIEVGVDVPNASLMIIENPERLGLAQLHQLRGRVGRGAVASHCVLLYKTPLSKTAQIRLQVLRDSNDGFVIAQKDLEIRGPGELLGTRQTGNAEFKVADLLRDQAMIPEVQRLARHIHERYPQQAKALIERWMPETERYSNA

[2] = target: T2, RecG R95A (E. coli, UniProt P24230 1-693, R95A); assay: as above; conditions: both partners purified
T2 construct: RecG DNA helicase, E. coli, R95A introduced into pEAW111 to give pEAW1324; The preparation included a very weak nickase contaminant; source: E. coli STL2669/pT7pol26 with pEAW1324, purified (same scheme as wildtype RecG)
T2 sequence (looked up): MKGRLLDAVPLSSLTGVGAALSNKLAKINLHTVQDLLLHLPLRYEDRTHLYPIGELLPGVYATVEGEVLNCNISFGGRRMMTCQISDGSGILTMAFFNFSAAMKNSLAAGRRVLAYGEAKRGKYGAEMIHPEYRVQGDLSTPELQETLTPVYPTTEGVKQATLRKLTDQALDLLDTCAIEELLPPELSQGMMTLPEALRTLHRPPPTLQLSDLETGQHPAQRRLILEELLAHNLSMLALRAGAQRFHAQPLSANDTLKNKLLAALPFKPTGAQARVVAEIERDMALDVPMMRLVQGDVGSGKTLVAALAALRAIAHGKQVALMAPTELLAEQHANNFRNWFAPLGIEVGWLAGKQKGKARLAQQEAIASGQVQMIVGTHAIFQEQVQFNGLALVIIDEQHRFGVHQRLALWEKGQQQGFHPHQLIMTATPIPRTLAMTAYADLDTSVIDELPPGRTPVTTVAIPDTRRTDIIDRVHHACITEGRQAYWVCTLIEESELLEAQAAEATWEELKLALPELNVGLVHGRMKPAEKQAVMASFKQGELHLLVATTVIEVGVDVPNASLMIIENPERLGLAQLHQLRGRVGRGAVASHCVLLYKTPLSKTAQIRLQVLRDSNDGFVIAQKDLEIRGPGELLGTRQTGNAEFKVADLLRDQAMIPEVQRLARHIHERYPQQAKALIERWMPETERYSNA

B1: single-stranded DNA-binding protein (SSB), full-length wildtype (natural protein, E. coli, UniProt P0AGE0 1-178, looked up)
chain: MASRGVNKVILVGNLGQDPEVRYMPNGGAVANITLATSESWRDKATGEMKEQTEWHRVVLFGKLAEVASEYLRKGSQVYIEGQLRTRKWTDQSGQDRYTTEVVVNVGGTMQMLGGRQGGGAPAGGNIGGGQPQGGWGQPQQPQGGNQFSGGAQSRPQQSAPAAPSNEPPMDFDDDIPF
notes: all concentrations and the stoichiometry are per monomer; also called full-length SSB; WT SSB
- Kd [1]: 2.6 ± 0.4 µM
- dH [1]: -3 ± 0.3 kcal/mol
- stoichiometry N [1]: 1.05 ± 0.07
- Kd [2]: 1.7 ± 0.7 µM
- dH [2]: -2.1 ± 0.3 kcal/mol
